ChEMBL document CHEMBL4406921, “Discovery of Axelopran (TD-1211): A Peripherally Restricted μ-Opioid Receptor Antagonist” (ACS Med Chem Lett, 2019)

Sequences of proteins named here, by UniProt entry; tags and fusion partners are left off. A change or cut given only in a name is not applied to a line headed by its entry.
UniProt P41144: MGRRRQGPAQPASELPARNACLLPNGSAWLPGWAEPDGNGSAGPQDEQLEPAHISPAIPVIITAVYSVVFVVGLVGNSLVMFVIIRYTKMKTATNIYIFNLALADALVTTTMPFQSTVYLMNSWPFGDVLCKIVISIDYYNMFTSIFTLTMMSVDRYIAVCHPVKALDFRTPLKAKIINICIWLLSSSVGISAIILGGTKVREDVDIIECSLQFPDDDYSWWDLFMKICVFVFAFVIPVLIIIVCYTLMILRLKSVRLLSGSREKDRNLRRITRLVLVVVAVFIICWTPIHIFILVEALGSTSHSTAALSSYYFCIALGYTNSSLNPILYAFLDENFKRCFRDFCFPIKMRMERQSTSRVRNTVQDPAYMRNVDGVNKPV

Biological target: Kappa-type opioid receptor (Cavia porcellus, UniProt P41144)
Assay: Displacement of [3H]-DPN from guinea pig kappa opioid receptor expressed in CHO-K1 cell membranes by radioligand binding assay
In short: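 Membranes from CHO-K1 cells stably transfected with human recombinant μ or δ receptor, or guinea pig κ receptor; competition with [3H]-DPN radioligand; affinity reported as pKi.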

Q: How did the Ki turn out when `NC(=O)c1cccc([C@H]2C[C@H]3CC[C@@H](C2)N3CCN(CCc2ccccc2)C(=O)CO)c1` was run?
A: 794 pM
